Test results published in patent publication US20040053822A1, “Inducing cellular immune responses to mage2/3 using peptide and nucleic acid compositions” (priority 2002, published 2004).
Read-outs that look alike come from different tables or passages of the source. One block for each molecule: values may come before it.

By UniProt entry, the sequences of proteins in these tests, tags left out. Where a name states a change or a piece, a line headed by the entry shows the natural chain unless it says otherwise. Residues count along the entry.
UniProt P01889, 25-362: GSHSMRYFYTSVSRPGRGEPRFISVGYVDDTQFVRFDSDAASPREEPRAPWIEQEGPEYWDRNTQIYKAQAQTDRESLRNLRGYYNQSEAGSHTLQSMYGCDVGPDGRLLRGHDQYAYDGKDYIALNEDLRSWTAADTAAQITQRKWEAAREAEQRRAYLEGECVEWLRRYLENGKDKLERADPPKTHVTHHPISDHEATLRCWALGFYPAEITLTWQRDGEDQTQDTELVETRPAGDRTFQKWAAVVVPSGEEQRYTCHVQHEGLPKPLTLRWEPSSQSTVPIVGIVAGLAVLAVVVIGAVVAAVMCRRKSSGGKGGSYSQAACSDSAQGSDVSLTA

Experiments:
HLA-DRB1*0401 (DR4w4) = HLA-DRB1*0401 (DR4w4) (Homo sapiens, UniProt P01903+P01911, A100K/A169T/F76Y/I96L/K127E/L162R/M171V/N62H/P40V/Q125Y/R42H/S133A/S149N/S66Y/V115G/V209L/W38E); assay: Purified HLA class II peptide binding assay, DRB1*0401; conditions: Mage 2 DR super motif peptides (Table XIX A)
HLA-DRB1*0101 (DR1) = HLA-DRB1*0101 (DR1) (Homo sapiens, UniProt P01903+P01911, A100R/D57E/F55L/F60I/F76Y/I96L/L162R/M171V/P40L/Q125E/R42F/V115G/Y59C); assay: Purified HLA class II peptide binding assay, DRB1*0101; conditions: Mage 2 DR super motif peptides (Table XIX A)
HLA-DRB1*0701 (DR7) = HLA-DRB1*0701 (DR7) (Homo sapiens, UniProt P01903+P01911, A100R/A102G/A103Q/D57E/D86V/E43K/F76Y/K127E/L162R/M171V/P40G/Q125H/Q99D/R33Q/R42Y/R54Q/S133A/S66F/T210M/V115G/Y107V/Y59L/Y89S); assay: Purified HLA class II peptide binding assay, DRB1*0701; conditions: Mage 2 DR super motif peptides (Table XIX A)
HLA-B*5101 (B51) = HLA-B*5101 (B51) (Homo sapiens, UniProt P01889, A329T/A93T/A95T/C349S/D138N/D201E/D98Y/E187L/E204Q/E69T/G107R/I218V/K202T/L105A/L119W/N104I/Q94N/R106L/R155S/R180L/S101N/S121T/S35A/S48A/V306I/V36M/Y195H/Y91F); assay: Purified HLA class I peptide binding assay, B51; conditions: binding affinity, HLA-B7 supermotif-bearing peptides
[1] = test system: B7-supertype molecules (B*0702, B*3501, B*5101, B*5301, and B*5401); assay: B7-supertype cross-reactive binding (five alleles); design: species or system human
HLA-B*5401 = HLA-B*5401 (Homo sapiens, UniProt P01889, A329T/C349S/D138N/D201E/E176V/E187T/E204Q/E69G/I76V/K202T/L119W/R155S/R180L/S121T/S35A/S48A/V127L/V306I/V36M/Y140L); assay: Purified HLA class I peptide binding assay, B*5401
HLA-B*3501 = HLA-B*3501 (Homo sapiens, UniProt P01889, A329T/A93T/A95T/C349S/D201E/D98Y/E176V/E187L/E204Q/E69T/I218V/K202T/L119I/Q94N/R155S/R180L/S121R/S35A/S48A/T118I/V127L/V306I/V36M/Y140S/Y91F); assay: Purified HLA class I peptide binding assay, B*3501
HLA-B*5301 = HLA-B*5301 (Homo sapiens, UniProt P01889, A329T/A93T/A95T/C349S/D201E/D98Y/E176V/E187L/E204Q/E69T/G107R/I218V/K202T/L105A/L119I/N104I/Q94N/R106L/R155S/R180L/S101N/S121R/S35A/S48A/T118I/V127L/V306I/V36M/Y140S/Y91F); assay: Purified HLA class I peptide binding assay, B*5301
HLA-B*0702 = HLA-B*0702 (Homo sapiens, UniProt P01889); assay: Purified HLA class I peptide binding assay, B*0702
HLA-A*0101 = HLA-A*0101 (Homo sapiens, UniProt P04439, A114D/A174V/A182V/D101N/D185E/E176A/E190D/L180R/Q94H/R68K/S129P/T187R/V100A/V91M/W191G); assay: Purified HLA class I peptide binding assay (125I probe inhibition), A*0101; conditions: HLA-A1 motif-bearing peptides
[2] = binding affinity, HLA-B7 supermotif-bearing peptides, read-out: B*5401 nM
[3] = binding affinity, HLA-B7 supermotif-bearing peptides

Molecule: CC[C@H](C)[C@H](NC(=O)[C@@H](NC(=O)[C@H](CC(C)C)NC(=O)[C@H](CC(C)C)NC(=O)CNC(=O)[C@H](C)NC(=O)[C@@H](NC(=O)[C@@H]1CCCN1C(=O)[C@@H](N)CCSC)C(C)C)[C@@H](C)CC)C(=O)O
IC50 (HLA-B*5101 (B51); read-out: B*5101 nM): 1.2 nM
No. of B7 Alleles Crossbound [1]: 5

Molecule: CSCC[C@H](NC(=O)[C@@H](NC(=O)[C@@H](NC(=O)[C@@H]1CCCN1C(=O)[C@@H](N)CC(C)C)[C@@H](C)O)[C@@H](C)O)C(=O)N[C@@H](CC(N)=O)C(=O)N[C@@H](Cc1ccc(O)cc1)C(=O)N1CCC[C@H]1C(=O)N[C@@H](CC(C)C)C(=O)O
IC50 (HLA-B*5101 (B51); read-out: B*5101 nM): 1960 nM
No. of B7 Alleles Crossbound [1]: 3
IC50 (HLA-B*5301; [3]): 266 nM

Molecule: EPIHSYPPLHERALR
DR7 binding data (HLA-DRB1*0701 (DR7)): −0.0011

Molecule: CC[C@H](C)[C@H](NC(=O)[C@@H](NC(=O)[C@@H](NC(=O)[C@H](CO)NC(=O)[C@H](Cc1ccccc1)NC(=O)[C@H](CO)NC(=O)[C@@H](NC(=O)[C@H](C)N)[C@@H](C)O)[C@@H](C)O)[C@@H](C)O)C(=O)N[C@@H](CC(N)=O)C(=O)N[C@@H](Cc1ccc(O)cc1)C(=O)O
IC50 (HLA-A*0101): 455 nM

Molecule: CC[C@H](C)[C@H](NC(=O)[C@@H](NC(=O)[C@@H](NC(=O)[C@H](CC(C)C)NC(=O)[C@H](CC(C)C)NC(=O)CNC(=O)[C@H](C)NC(=O)[C@H](CCCCN)NC(=O)[C@@H]1CCCN1C(=O)[C@@H](N)CCSC)[C@@H](C)CC)[C@@H](C)CC)C(=O)O
IC50 (HLA-B*5101 (B51); B*5101 nM): 62 nM
IC50 (HLA-B*0702): 324 nM
No. of B7 Alleles Crossbound [1]: 4
IC50 (HLA-B*5401): 102 nM
IC50 (HLA-B*3501): 2400 nM
IC50 (HLA-B*5301): 176 nM

The next lines start with the values.

DR4w4 binding data (HLA-DRB1*0401 (DR4w4)): −0.0032
DR1 binding data (HLA-DRB1*0101 (DR1)): −0.0005
DR7 binding data (HLA-DRB1*0701 (DR7)): −0.0011
Molecule: CC(C)C[C@H](N)C(=O)NCC(=O)N[C@@H](CCC(=O)O)C(=O)N[C@H](C(=O)N1CCC[C@H]1C(=O)N[C@@H](C)C(=O)N[C@@H](C)C(=O)N[C@@H](CC(=O)O)C(=O)N[C@@H](CO)C(=O)N1CCC[C@H]1C(=O)N[C@@H](CO)C(=O)N1CCC[C@H]1C(=O)N1CCC[C@H]1C(=O)N[C@@H](Cc1c[nH]cn1)C(=O)N[C@@H](CO)C(=O)O)C(C)C

IC50 (HLA-B*5101 (B51); read-out: B*5101 nM): 50 nM
No. of B7 Alleles Crossbound [1]: 3
IC50 (HLA-B*5401; [2]): 2220 nM
IC50 (HLA-B*3501; [3]): 2670 nM
Molecule: CC[C@H](C)[C@H](NC(=O)[C@H](CC(C)C)NC(=O)[C@@H](NC(=O)[C@H](Cc1ccc(O)cc1)NC(=O)[C@H](CC(C)C)NC(=O)[C@H](Cc1c[nH]cn1)NC(=O)[C@H](CO)NC(=O)[C@@H](NC(=O)[C@@H]1CCCN1C(=O)[C@@H](N)C(C)C)[C@@H](C)CC)[C@@H](C)CC)C(=O)O

IC50 (HLA-B*0702): 60 nM
No. of B7 Alleles Crossbound [1]: 4
IC50 (HLA-B*5401; [2]): 238 nM
IC50 (HLA-B*3501; [3]): 3790 nM
IC50 (HLA-B*5301; [3]): 258 nM
Molecule: CC[C@H](C)[C@H](NC(=O)[C@H](CO)NC(=O)[C@H](CCC(N)=O)NC(=O)[C@H](CO)NC(=O)[C@H](Cc1c[nH]c2ccccc12)NC(=O)[C@H](CC(C)C)NC(=O)[C@@H]1CCCN1C(=O)[C@@H](N)Cc1ccc(O)cc1)C(=O)O

DR4w4 binding data (HLA-DRB1*0401 (DR4w4)): −0.0032
DR1 binding data (HLA-DRB1*0101 (DR1)): −0.0003
Molecule: CC[C@H](C)[C@H](NC(=O)[C@H](Cc1c[nH]cn1)NC(=O)[C@@H]1CCCN1C(=O)[C@@H](N)CCC(=O)O)C(=O)N[C@@H](CO)C(=O)N[C@@H](Cc1ccc(O)cc1)C(=O)N1CCC[C@H]1C(=O)N1CCC[C@H]1C(=O)N[C@@H](CC(C)C)C(=O)N[C@@H](Cc1c[nH]cn1)C(=O)N[C@@H](CCC(=O)O)C(=O)N[C@@H](CCCNC(=N)N)C(=O)N[C@@H](C)C(=O)N[C@@H](CC(C)C)C(=O)N[C@@H](CCCNC(=N)N)C(=O)O

IC50 (HLA-A*0101): 2.6 nM
Molecule: CSCC[C@H](NC(=O)[C@@H](NC(=O)[C@@H](NC(=O)[C@@H]1CCCN1C(=O)[C@H](CC(C)C)NC(=O)[C@H](CC(=O)O)NC(=O)[C@H](CO)NC(=O)[C@H](C)N)[C@@H](C)O)[C@@H](C)O)C(=O)N[C@@H](CC(N)=O)C(=O)N[C@@H](Cc1ccc(O)cc1)C(=O)O
